{"source": "patent US20110224300A1", "about": "“USE OF POTASSIUM 2-(a- HYDROXYPENTYL) BENZOATE IN THE MANUFACTURE OF MEDICAMENTS FOR PREVENTING AND/OR TREATING SENILE DEMENTIA” (Institute of Mataria Medica, Chinese Academy of Me, priority 2008, published 2011)", "format_in_all_cases": "in vivo, rat", "key": {"SOD": {"test_system": "SOD", "assay": "SOD activity of brain tissues from permanent 2-VO rats", "protocol": "(§1) Rats were randomly divided into six experimental groups (20 rats/each group): one sham-operated group, one vehicle control group, one piracetam-treated group (600 mg/kg), and three dl-PHPB-treated groups (13, 39, and 129 mg/kg). In 10 days after onset of 2-VO, drugs and vehicle were administered orally to rats for 21 days (one time/each day). The spatial learning and memory capability of rats were detected by Morris water maze in the 25-30 days after operation. The Morris water test was commenced at 40 min after drugs treated. The biochemical and pathology assays were conducted later (in 24 h) after behavioral tests.\n(§2) The biochemical assays were conducted later (in 24 h) after behavioral testing. Eight rats in each group were anesthetized with ether and sacrificed. The brains were quickly removed and cleaned with ice-cold saline. Then the parietal cortex and hippocampus were isolated. For biochemical analysis, the tissues were weighed and homogenized in ice-cold saline with the proportion of 1:9 (w/v). Homogenization (IKA, Germany) was carried out for 2 min in an ice bath. […] The levels of choline acetyltransferase (ChAT) SOD, and MDA activities were determined with commercial colorimetric assay kits (Nanjing Jiancheng Bioengineering Institute, China). The content of protein in the supernatant was determined by Bradford method using BSA as standard."}, "ChAT": {"test_system": "ChAT", "assay": "ChAT activity of brain tissues from permanent 2-VO rats", "protocol": "as §1, §2"}, "MDA": {"test_system": "MDA", "assay": "MDA level of brain tissues from permanent 2-VO rats", "protocol": "as §1, §2"}}}
{"smiles": "NC(=O)CN1CCCC1=O", "note": "[Piracetam, reference compound]", "values": [{"measurement": "SOD activity in hippocampus", "setting": "SOD; hippocampus, doses not given", "result": "no significant effects"}, {"measurement": "SOD activity in cortex", "setting": "SOD; piracetam 600 mg/kg, 21 days", "result": "significantly alleviated the increase of SOD activity"}, {"measurement": "ChAT activity in cortex", "setting": "ChAT; cortex, data not shown", "result": "had no effect"}, {"measurement": "activity of ChAT in hippocampus", "setting": "ChAT; piracetam 600 mg/kg, 21 days", "result": "did not show significant effects"}, {"measurement": "MDA level in hippocampus", "setting": "MDA; hippocampus, doses not given", "result": "no significant effects"}, {"measurement": "MDA level in cortex", "setting": "MDA; piracetam 600 mg/kg, 21 days", "result": "did not show significant effects"}]}
